We go through one substance from patent publication US6413935B1, “Induction of immune response against desired determinants” (priority 1993, dated 2002).

Sequences of proteins named here, by UniProt entry; tags and fusion partners are left off. Residues count along the entry.
UniProt P01910, 24-256: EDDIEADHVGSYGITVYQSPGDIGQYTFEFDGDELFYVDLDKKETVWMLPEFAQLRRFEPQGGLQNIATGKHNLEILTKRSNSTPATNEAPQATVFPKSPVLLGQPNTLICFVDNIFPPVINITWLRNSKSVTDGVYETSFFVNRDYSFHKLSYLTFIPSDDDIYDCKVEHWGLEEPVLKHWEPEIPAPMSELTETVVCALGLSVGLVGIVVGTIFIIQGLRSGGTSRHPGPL
UniProt P06343, 28-263: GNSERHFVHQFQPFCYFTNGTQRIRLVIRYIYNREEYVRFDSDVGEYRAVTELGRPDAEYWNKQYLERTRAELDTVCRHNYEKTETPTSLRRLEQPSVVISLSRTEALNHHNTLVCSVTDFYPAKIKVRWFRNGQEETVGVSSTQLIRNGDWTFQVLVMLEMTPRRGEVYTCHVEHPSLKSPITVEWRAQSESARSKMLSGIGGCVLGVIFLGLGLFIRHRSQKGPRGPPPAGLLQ
UniProt P79483, 30-266: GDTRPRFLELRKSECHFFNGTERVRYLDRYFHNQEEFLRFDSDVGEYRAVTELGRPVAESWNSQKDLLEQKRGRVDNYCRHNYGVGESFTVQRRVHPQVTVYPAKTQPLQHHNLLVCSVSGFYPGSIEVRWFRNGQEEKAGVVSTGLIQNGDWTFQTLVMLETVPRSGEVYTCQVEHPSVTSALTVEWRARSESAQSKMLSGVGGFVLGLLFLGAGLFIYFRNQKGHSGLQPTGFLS

Assay [1] concerns the target T1, IA^k (Mus musculus, UniProt P01910+P06343).
T1 construct: Various cell lines were used as sources of purified human and mouse class II molecules; endogenous in cells; host or cells: CH12
It is filed as binding. Particulars: read-out: Capacity to bind purified IA^k, IC50.

Assay [2] addresses DR3 (Homo sapiens, UniProt P01903+P01911, A100K/A102G/A103R/A169T/F55Y/I96L/K41T/L162R/M171V/P40S/Q125H/Q178H/Q39Y/R42S/S66N/T106N/T262R/W38E/Y61H). The following applies: read-out: Binding capacity DR3, IC50.
Assay [3] addresses DR4w4 (Homo sapiens, UniProt P01903+P01911, A100K/A169T/F76Y/I96L/K127E/L162R/M171V/N62H/P40V/Q125Y/R42H/S133A/S149N/S66Y/V115G/V209L/W38E). Particulars: read-out: Binding capacity DR4w4, IC50.
Assay [4] addresses DR52a (Homo sapiens, UniProt P01903+P79483). The following applies: read-out: Binding capacity DR52a, IC50.

In the case of aKFVAAWTLKAAa [Peptide 1024.03], the IC50 (usually the concentration that gives 50% inhibition) in assay [1] is above 10000 nM; in assay [2], 1470 nM; in assay [3], 2 nM; in assay [4] it was 797 nM.
